Measurements from US10526581B2, “Modulation of cardiac stem-progenitor cell differentiation, assays and uses thereof” (priority 2013, dated 2020).
“Also recorded” adds a separate entry of the source.

Tests used:
Assay type in all cases: cell-based, rat
c-kit^pos eCSCs = test: cardiomyocyte differentiation of c-kit^pos eCSCs in differentiation medium (cTnI^pos cells, qRT-PCR)
Description: FIGS. 4(A-E). Adult myocardium produces cardiopoietic factors acting on the specific receptors of c-kit^pos eCSCs in vivo (A-C) Effect of growth factors and cytokines on c-kit^pos eCSC proliferation (A), clonogenicity (B), and cardiomyocyte differentiation (C) which was measured as percentage of cardiac troponin I (cTnI) expressing cells after 14 days in culture. *P<0.05 vs. CTRL. (D) Representative immunostaining of cardiac troponin I (cTnI; red) positive eCSC-derived cells following supplementation with IGF-1 (left panel) or TGF-β1 (right panel). Nuclei were identified by DAPI in blue. Bar=50 μm. (E) qRT-PCR analysis showing the fold change of c-kit, Oct-4, Gata-4, Nkx2.5 and cTnI mRNAs following 14 days in base differentiation medium (CTRL) and base differentiation medium supplemented with IGF-1 or TGF-β1, compared to cloned c-kit^pos eCSCs at P0 (Base). *P<0.05 vs. CTRL. †P<0.05 vs. IGF-1. Data are Mean±SD of n=6/condition. […]
To evaluate the role of TGF-β/SMAD signaling, BMP-2, BMP-4 and TGF-β1 were added to cultured c-kit^pos eCSCs.
RNA was extracted using Qiagen RNeasy columns and was reverse transcribed using first strand cDNA synthesis with random or oligo-dT primers (Applied Biosystems). Residual amounts of DNA were removed by on-column DNase treatment using the RNase-Free DNase Set (Qiagen) during the RNeasy procedure. Quantitative RT-PCR was performed using SYBR Green (BioRad) on a MyIQ thermocycler (BioRad). The PCR-reaction included 2 μl of template cDNA, and 300 nM forward and reverse primers. PCR efficiency was evaluated by using a standard curve of five serial dilution points. Data were analysed using BioRad IQ software and mRNA was normalized to the housekeeping gene, GAPDH. All reactions were carried out in triplicate.

c-kit^pos CD45^neg eCSCs [1] = test: clonogenic assay of c-kit^pos eCSCs; details: in vitro
Description: (§1) c-kit^posCD45^neg eCSCs express functional receptors for these cardiopoetic factors (cGFs) (FIG. 4). In particular, both TGF-β1 and Wnt receptors are activated and signal to their known downstream effectors in eCSCs isolated from ISO injured hearts (FIG. 4). We thus directly tested in vitro the growth response of freshly isolated c-kit^pos CD45^neg eCSCs grown in limited serum (1% ESQ-FBS) to individual cGFs. Dose-response curves were performed to determine the optimal concentration for each cGF (FIG. 13A-H). […] These effects were confirmed by qRT-PCR of cardiomyocyte-specific mRNAs (FIG. 5).
(§2) Wnt/β-catenin and TGF-β/SMADs signaling play critical roles in the regulation of embryonic as well as different tissue-specific stem cell fate (21-23). In particular, these two signaling pathways have distinct functions in mammalian cardiogenesis (24-27). Thus, to extend our findings we have tested through gain and loss of function experiments the effects of Wnt/β-catenin and TGF-β/SMADs signaling pathways on c-kit^pos eCSC fate in vitro. […] To disrupt Wnt/ρ-catenin, c-kit^pos eCSCs were either treated with Dickkopf-1 (Dkk-1), an inhibitor of canonical Wnts or transfected with a specific short hairpin RNA for β-catenin (β-cat^shRNA). […]

c-kit^pos CD45^neg eCSCs [2] = test: BrdU incorporation proliferation assay of c-kit^pos eCSCs with cardiopoietic growth factors and Wnt or TGF-β modulators; details: in vitro
Description: as §1, §2

B1: BMP-2: cardiopoietic growth factor (protein, UniProt P12643 283-396, looked up)
Bone morphogenetic protein 2: QAKHKQRKRLKSSCKRHPLYVDFSDVGWNDWIVAPPGYHAFYCHGECPFPLADHLNSTNHAIVQTLVNSVNSKIPKACCVPTELSAISMLYLDENEKVVLKNYQDMVVEGCGCR
With B1 the “differentiation of eCSCs into the cardiomyocyte lineage (myocyte specification)” value (c-kit^pos eCSCs; differentiation medium) was “promoted differentiation”, the “number of myocyte differentiating (cTnI^pos) cells” value (c-kit^pos eCSCs; differentiation medium (LIF withdrawal)) was “significantly induced” and the “transcription of myogenic lineage markers” value (c-kit^pos eCSCs; differentiation medium (LIF withdrawal), qRT-PCR) was “significantly induced”. The “c-kit^pos eCSC clonogenicity” value (c-kit^pos CD45^neg eCSCs [1]) was “did not affect; also recorded: Neither BMP-2, BMP-4, TGF-β1 supplementation nor Smad2 knock-down affected” and the “c-kit^pos eCSC proliferation (growth, expansion)” value (c-kit^pos CD45^neg eCSCs [2]) was “did not affect; also recorded: Neither BMP-2, BMP-4, TGF-β1 supplementation nor Smad2 knock-down affected”.
